Measured values as given in ChEMBL document CHEMBL4190256, “First dual AK/GSK-3β inhibitors endowed with antioxidant properties as multifunctional, potential neuroprotective agents” (Eur J Med Chem, 2017).

Columns and labels:
[1] = compound: O=C1C(c2cccc3ccccc23)Oc2cc3c(cc2N1Cc1ccccc1)OCO3; assay: Inhibition of recombinant human His-tagged GSK3beta assessed as substrate Vmax at 3 uM using GS-2 peptide as substrate in presence of [33P]gamma-ATP after 15 mins by microbeta counting method (reference value: 19490 +/- 852 cpm)
[2] = compound: O=C1C(c2cccc3ccccc23)Oc2cc3c(cc2N1Cc1ccccc1)OCO3; assay: Inhibition of recombinant human His-tagged GSK3beta assessed as substrate Vmax at 12 uM using GS-2 peptide as substrate in presence of [33P]gamma-ATP after 15 mins by microbeta counting method (reference value: 19490 +/- 852 cpm)
[3] = compound: O=C1C(c2cccc3ccccc23)Oc2cc3c(cc2N1Cc1ccccc1)OCO3; assay: Inhibition of recombinant human His-tagged GSK3beta assessed as substrate Vmax at 9 uM using GS-2 peptide as substrate in presence of [33P]gamma-ATP after 15 mins by microbeta counting method (reference value: 19490 +/- 852 cpm)
[4] = compound: O=C1C(c2cccc3ccccc23)Oc2ccccc2N1Cc1ccc(F)cc1; assay: Inhibition of recombinant human His-tagged GSK3beta assessed as substrate Vmax at 2.5 uM using GS-2 peptide as substrate in presence of [33P]gamma-ATP after 15 mins by microbeta counting method (reference value: 5872 +/- 560 cpm)
[5] = compound: O=C1C(c2cccc3ccccc23)Oc2ccccc2N1Cc1ccc(F)cc1; assay: Inhibition of recombinant human His-tagged GSK3beta assessed as substrate Km at 7.5 uM using GS-2 peptide as substrate in presence of [33P]gamma-ATP after 15 mins by microbeta counting method (reference value: 11.8 +/- 2.2 uM)
[6] = compound: O=C1C(c2cccc3ccccc23)Oc2cc3c(cc2N1Cc1ccccc1)OCO3; assay: Inhibition of recombinant human His-tagged GSK3beta assessed as substrate Km at 3 uM using GS-2 peptide as substrate in presence of [33P]gamma-ATP after 15 mins by microbeta counting method (reference value: 9.9 +/- 0.9 uM)
[7] = compound: O=C1C(c2cccc3ccccc23)Oc2ccccc2N1Cc1ccc(F)cc1; assay: Inhibition of recombinant human His-tagged GSK3beta assessed as substrate Km at 5 uM using GS-2 peptide as substrate in presence of [33P]gamma-ATP after 15 mins by microbeta counting method (reference value: 11.8 +/- 2.2 uM)
[8] = compound: O=C1C(c2cccc3ccccc23)Oc2ccccc2N1Cc1ccc(F)cc1; assay: Inhibition of recombinant human His-tagged GSK3beta assessed as substrate Km at 2.5 uM using GS-2 peptide as substrate in presence of [33P]gamma-ATP after 15 mins by microbeta counting method (reference value: 11.8 +/- 2.2 uM)
[9] = compound: O=C1C(c2cccc3ccccc23)Oc2cc3c(cc2N1Cc1ccccc1)OCO3; assay: Inhibition of recombinant human His-tagged GSK3beta assessed as substrate Km at 6 uM using GS-2 peptide as substrate in presence of [33P]gamma-ATP after 15 mins by microbeta counting method (reference value: 9.9 +/- 0.9 uM)
[10] = compound: O=C1C(c2cccc3ccccc23)Oc2cc3c(cc2N1Cc1ccccc1)OCO3; assay: Inhibition of recombinant human His-tagged GSK3beta assessed as substrate Km at 12 uM using GS-2 peptide as substrate in presence of [33P]gamma-ATP after 15 mins by microbeta counting method (reference value: 9.9 +/- 0.9 uM)
[11] = compound: O=C1C(c2cccc3ccccc23)Oc2ccccc2N1Cc1ccc(F)cc1; assay: Inhibition of recombinant human His-tagged GSK3beta assessed as substrate Km at 1.25 uM using GS-2 peptide as substrate in presence of [33P]gamma-ATP after 15 mins by microbeta counting method (reference value: 11.8 +/- 2.2 uM)
[12] = compound: O=C1C(c2cccc3ccccc23)Oc2ccccc2N1Cc1ccc(F)cc1; assay: Inhibition of recombinant human His-tagged GSK3beta assessed as substrate Vmax at 7.5 uM using GS-2 peptide as substrate in presence of [33P]gamma-ATP after 15 mins by microbeta counting method (reference value: 5872 +/- 560 cpm)
[13] = compound: O=C1C(c2cccc3ccccc23)Oc2ccccc2N1Cc1ccc(F)cc1; assay: Inhibition of recombinant human His-tagged GSK3beta assessed as substrate Vmax at 5 uM using GS-2 peptide as substrate in presence of [33P]gamma-ATP after 15 mins by microbeta counting method (reference value: 5872 +/- 560 cpm)
[14] = compound: O=C1C(c2cccc3ccccc23)Oc2cc3c(cc2N1Cc1ccccc1)OCO3; assay: Inhibition of recombinant human His-tagged GSK3beta assessed as substrate Km at 9 uM using GS-2 peptide as substrate in presence of [33P]gamma-ATP after 15 mins by microbeta counting method (reference value: 9.9 +/- 0.9 uM)
[15] = compound: O=C1C(c2cccc3ccccc23)Oc2cc3c(cc2N1Cc1ccccc1)OCO3; assay: Inhibition of recombinant human His-tagged GSK3beta assessed as substrate Vmax at 6 uM using GS-2 peptide as substrate in presence of [33P]gamma-ATP after 15 mins by microbeta counting method (reference value: 19490 +/- 852 cpm)
[16] = compound: O=C1C(c2cccc3ccccc23)Oc2ccccc2N1Cc1ccc(F)cc1; assay: Inhibition of recombinant human His-tagged GSK3beta assessed as substrate Vmax at 1.25 uM using GS-2 peptide as substrate in presence of [33P]gamma-ATP after 15 mins by microbeta counting method (reference value: 5872 +/- 560 cpm)

B1: Glycogen synthase kinase-3 beta (Homo sapiens), P49841 (protein)
chain: MSGRPRTTSFAESCKPVQQPSAFGSMKVSRDKDGSKVTTVVATPGQGPDRPQEVSYTDTKVIGNGSFGVVYQAKLCDSGELVAIKKVLQDKRFKNRELQIMRKLDHCNIVRLRYFFYSSGEKKDEVYLNLVLDYVPETVYRVARHYSRAKQTLPVIYVKLYMYQLFRSLAYIHSFGICHRDIKPQNLLLDPDTAVLKLCDFGSAKQLVRGEPNVSYICSRYYRAPELIFGATDYTSSIDVWSAGCVLAELLLGQPIFPGDSGVDQLVEIIKVLGTPTREQIREMNPNYTEFKFPQIKAHPWTKVFRPRTPPEAIALCSRLLEYTPTARLTPLEACAHSFFDELRDPNVKLPNGRDTPALFNFTTQELSSNPPLATILIPPHARIQAAASTPTNATAASDANTGDRGQTNNAASASASNST
Vmax [1]: 14000 cpm
Vmax [2]: 5290 cpm
Vmax [3]: 7980 cpm
Vmax [4]: 4030 cpm
Km [5]: 11 µM
Km [6]: 10.3 µM
Km [7]: 9.3 µM
Km [8]: 10.1 µM
Km [9]: 9.9 µM
Km [10]: 10.2 µM
Km [11]: 9.5 µM
Vmax [12]: 2750 cpm
Vmax [13]: 3300 cpm
Km [14]: 10.9 µM
Vmax [15]: 10300 cpm
Vmax [16]: 4540 cpm
